Results from patent US20080132417A1, “Molecular Basis For The Identification Of Chemotherapy Resistance In Human Tumors And The Treatment Thereof” (THE UAB RESEARCH FOUNDATION, priority 2004, published 2008).

Experiments:
SW948CPTH cells = test: Reduction of CPT-11 resistance of SW948CPTH cells by C225 or siXRCC1 (cell proliferation assay); assay type: cell-based, human; details: C225 5 μg/ml 24 h prior to CPT-11, p<0.01
Protocol: The data are the average ±SE of two to four independent experiments performed in quadruplicate. p-values were determined by Student's t-test.
Standard cell proliferation assays were done in 24-well tissue culture plates. […] Following a 24 h incubation at 37° C., the cell culture media from the oligo and siXRCC1 groups were removed; the cells were washed with 1 ml PBS, and culture medium was added to the cells. Serial dilutions of CPT-11 were added to each well in quadruplicate. After a 24 h incubation at 37° C., the culture medium was removed from all groups, the cells washed with PBS and drug-free medium added to the cells.

[1] = test system: XRCC1 protein in SW948 cells; test: Immunoblot of XRCC1 protein in SW948 cells after cetuximab; assay type: cell-based, human; details: cetuximab 5 μg/ml, lysates at 0, 4, 24, 48, 72 h
Protocol: Cell lysates were collected at 0, 4, 24, 48 and 72 h.
Cetuximab was added at time 0 at a concentration of 5 μg/ml. The cells were incubated at 37° C., and cell lysates were collected at each time point. For the detection of XRCC1, 20 μg protein was loaded per lane on a 10% SDS-PAGE. The proteins were separated by electrophoresis and then transferred to a nylon membrane. The blot was probed with anti-XRCC1 (NeoMarkers) followed by anti-mouse-HRP. The blots were developed with chemiluminescence and scanned using UN-SCAN-IT software (FIGS. 7 and 8).

decrease of CPT-11 IC50 as compared to the untreated group (SW948CPTH cells): 26%
Substance: C225: cetuximab (IMC-C225)
XRCC1 protein levels in SW948 cells [1]: no observable change
XRCC1 protein levels in SW948 cells ([1]; listed as Cetuximab): no change
